{"source": "patent US10544117B2", "about": "“5-hydroxytryptamine receptor 7 activity modulators and their method of use” (Temple University—Of the Commonwealth System of Higher …, priority 2014, dated 2020)", "biological_target": "Serotonin 5HT7 receptors (Homo sapiens (Human), UniProt P34969)", "assay": "Radiolabel Binding Studies for Serotonin 5HT7 receptors", "details": "membranes of cells expressing recombinant 5HT7 receptors", "protocol": "Radiolabel Binding Studies for Serotonin 5HT7 receptors, method 1:\nA similar stock of the reference compound chlorpromazine is also prepared as a positive control. Eleven dilutions (5× assay concentration) of the compound of the disclosure and chlorpromazine are prepared in the Assay Buffer by serial dilution to yield final corresponding assay concentrations ranging from 10 pM to 10 μM.\nA stock concentration of 5 nM [^3H]LSD (lysergic acid diethyl amide) is prepared in 50 mM Tris-HCl, 10 mM MgCl2, 1 mM EDTA, pH 7.4 (Assay Buffer). Aliquots (50 μl) of radioligand are dispensed into the wells of a 96-well plate containing 100 μl of Assay Buffer. Duplicate 50-μl aliquots of the compound of the disclosure test and chlorpromazine positive control reference compound serial dilutions are added.\nMembrane fractions of cells expressing recombinant 5HT7 receptors (50 μL) are dispensed into each well. […]\nThe 250-μl reactions are incubated at room temperature for 1.5 hours, then harvested by rapid filtration onto 0.3% polyethyleneimine-treated, 96-well filter mats using a 96-well Filtermate harvester. […] The filter mats are dried, then scintillant is added to the filters and the radioactivity retained on the filters is counted in a Microbeta scintillation counter. […]"}
{"smiles": "O=C1OC(CCN2CCN(c3ccc4[nH]ccc4c3)CC2)CC12CCCC2", "note": "(stereo not shown) [Entry 160147]", "values": [{"measurement": "IC50", "result": 56, "unit": "nM"}]}
